Experimental data reported in patent US9669035B2, “Combinations comprising PDE 2 inhibitors such as 1-aryl-4-methyl-[1,2,4]triazolo-[4,3-A]]quinoxaline compounds and PDE 10 inhibitors for use in the treatment of neurological of metabolic disorders” (Janssen Pharmaceutica NV, priority 2012, dated 2017).
Several values for one entry are separate records, joined by “and”; a condition that tells them apart may be missing. Identical values can stand only once. Counter-ions that a name gives are not always drawn.

How the values were obtained:
[1] = tested on: cGMP levels in the rat brain; conditions: in vivo, hydrochloride
[2] = tested on: d-Amphetamine-induced hyperlocomotion in rats; assay: d-Amphetamine-induced hyperlocomotion in rats: potentiation of the effect of MP-10; format: in vivo; conditions: Rattus norvegicus, sc, 1 h, read-out: ED50 for activity levels <2500 cm (potentiation of MP-10)
Procedure: At a predefined time interval before measuring motor activity, the rats were pretreated with test compound or solvent (10 ml/kg, p.o. or s.c.) and placed in individual cages. Thirty min before starting the locomotor activity test, the rats were challenged with d-amphetamine (1.25 mg/kg, s.c.) in combination with MP-10 (2.5 mg/kg, s.c.), both given as a single injection (10 ml/kg, s.c.). Motor activity was measured over a period of 30 min in microprocessor-based motor activity arenas (closed gray PVC cylinders with a height of 39 cm and a diameter of 31 cm) and analyzed using the Noldus Ethovision XT Video Tracking System (Version 7.0.418; Noldus, Wageningen, The Netherlands). The total distance traveled (cm) was calculated. A total distance traveled <2500 cm was adopted as all-or-none criterion for potentiation of the effect of MP-10 (6.3% false positives in a control population of 412 solvent-pretreated rats).

With `CCCCOc1cncc(-c2nnc3c(C)nc4ccc(CN5CCOCC5)cc4n23)c1` [Compound B-1a, 1-(5-Butoxypyridin-3-yl)-4-methyl-8-(morpholin-4-ylmethyl) [1,2,4]triazolo[4,3-a]quinoxaline hydrochloride] the “mean nmol cGMP/ml” value [1] was 11.6 nmol cGMP/ml and 16.0 nmol cGMP/ml and the ED50 at 2.5 mg/kg [2] was 0.51 mg/kg.
